Measured values taken from ChEMBL document CHEMBL2169798, “Discovery of a Plasmodium falciparum glucose-6-phosphate dehydrogenase 6-phosphogluconolactonase inhibitor (R,Z)-N-((1-ethylpyrrolidin-2-yl)methyl)-2-(2-fluorobenzylidene)-3-oxo-3,4-dihydro-2H-benzo[b][1,4]thiazine-6-carboxamide (ML276) that reduces parasite growth in vitro” (J Med Chem, 2012).

Experiments:
[1] = target: T1, Glucose-6-phosphate 1-dehydrogenase (Plasmodium falciparum, UniProt Q25856); experiment: Inhibition of Plasmodium falciparum glucose-6-phosphate dehydrogenase after 2 hrs by resazurin/diaphorasecoupled assay
T1 sequence (Q25856 whole entry): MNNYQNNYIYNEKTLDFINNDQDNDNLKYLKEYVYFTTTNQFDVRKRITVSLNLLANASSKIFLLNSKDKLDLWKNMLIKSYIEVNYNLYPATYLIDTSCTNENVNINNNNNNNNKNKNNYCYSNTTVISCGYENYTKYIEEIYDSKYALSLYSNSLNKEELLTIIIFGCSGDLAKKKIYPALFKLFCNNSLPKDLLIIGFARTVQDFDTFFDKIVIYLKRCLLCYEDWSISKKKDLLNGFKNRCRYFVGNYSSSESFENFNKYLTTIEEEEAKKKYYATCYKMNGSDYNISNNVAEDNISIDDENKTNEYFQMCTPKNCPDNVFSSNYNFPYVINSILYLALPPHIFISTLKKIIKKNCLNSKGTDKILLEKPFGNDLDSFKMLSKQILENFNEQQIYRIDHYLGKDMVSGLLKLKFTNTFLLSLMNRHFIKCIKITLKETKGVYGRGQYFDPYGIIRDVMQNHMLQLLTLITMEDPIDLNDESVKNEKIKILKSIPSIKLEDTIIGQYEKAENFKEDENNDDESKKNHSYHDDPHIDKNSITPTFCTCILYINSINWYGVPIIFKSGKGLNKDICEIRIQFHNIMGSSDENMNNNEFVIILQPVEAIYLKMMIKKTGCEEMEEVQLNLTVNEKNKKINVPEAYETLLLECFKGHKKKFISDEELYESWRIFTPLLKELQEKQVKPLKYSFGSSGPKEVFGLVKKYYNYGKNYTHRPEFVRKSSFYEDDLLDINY

[2] = target: T1, Glucose-6-phosphate 1-dehydrogenase; experiment: Inhibition of Plasmodium falciparum glucose-6-phosphate dehydrogenase after 45 mins by orthogonal assay
Method in brief: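 Direct NADPH read without coupling: PfGluPho (0.4 μg/mL enzyme solution) in 50 mM Tris pH 7.5, 0.005% Tween 20, 1 mg/mL BSA; substrate 40 μM G6P, 6 μM NADP+, 6.6 mM MgCl2.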

Work on `O=C1Nc2cc(C(=O)NCCCN3CCCC3)ccc2S/C1=C\c1cccc(Cl)c1` yielded an IC50 [1] of 17.9 µM and an IC50 [2] of 34.2 µM.
